We go through 25 molecules from PubChem BioAssay AID540267 (National Center for Advancing Translational Sciences (NCATS), 2011).

Only a part is listed here, and it is no random draw. Activity calls are given as the source filed them. Cut-off read from the data, not from the text of the source: active = activity change below about -80%; inconclusive = between about -30% and that limit; inactive = weaker than that.
% is set by controls: 0 for no effect and ±100 for the full control effect.

The test is described as follows: Small Molecules that selectively kill Giardia lamblia: qHTS.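 Note: parasites exposed to compound for two days anaerobically before the ATP read.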 As to conditions: Giardia lamblia trophozoite viability; at 7.66 µM; active compounds read low. Summed up:
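Giardia lamblia trophozoites (100 cells/well) were incubated with compounds for 48 h at 37 deg C under anaerobic conditions. Viability was read as ATP content by one-step luminescence after 15-30 min at room temperature.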
For orientation: In qHTS, concentration-response curves come from the screen itself.
In the case of `COc1ccccc1OP(C)(=O)Nc1ccc(C)cc1C` (stereo not given), the activity change was inactive: 24.7%.

Take `CP(=O)(Nc1ccccn1)Oc1ccccc1` (stereo not given): the activity change is inactive: -13.2%.

Regarding `CCc1ccc(OP(C)(=O)O)cc1`, the activity change was inactive: -14.4%.

As for `COc1ccccc1OP(C)(=O)Nc1ccc(Br)cc1` (stereo not given), the activity change is inactive: -15.9%.

`COc1ccc(OP(C)(=O)Nc2ccccn2)cc1` (stereo not given): the activity change is inactive: 1.14%.

Regarding `CN(C)CCOC(=O)C(O)(c1ccccc1)C1CCCC1` (stereo not given), the activity change is inactive: 3.85%.

Turning to `O=C(OCCN1CCN(CCOCc2ccccc2)CC1)C(O)(c1ccccc1)c1ccccc1`, the activity change is inactive: -12.4%.

Consider `CP(=O)(Nc1ccccc1F)Oc1ccccc1` (stereo not given), for which the activity change is inactive: 3.58%.

Turning to `CC(C)c1ccc(OP(C)(=O)Nc2ccc(SC(F)(F)F)cc2)cc1` (stereo not given), the activity change is inactive: 1.99%.

As for `Cc1c([N+](=O)[O-])cc([N+](=O)[O-])c(Br)c1[N+](=O)[O-]`, the activity change was inactive: -5.6%.

Consider `CCN(CC)CCCOC(=O)C(O)(c1ccccc1)C1CCCCC1` (stereo not given), for which the activity change was inactive: -1.71%.

In the case of `CP(=O)(Nc1ccccc1)Oc1ccc(F)cc1` (stereo not given), the activity change was inactive: -18.5%.

On to `CCCCCOc1ccc(NP(C)(=O)Oc2ccc(Cl)cc2Cl)cc1` (stereo not given), for which the activity change was inactive: 31.4%.

Consider `CCOC(=O)c1ccc(NP(C)(=O)Oc2ccc(F)cc2)cc1` (stereo not given), for which the activity change was inactive: -16.6%.

For `COc1ccc(OP(C)(=O)Nc2ccc(SC(F)(F)F)cc2)cc1` (stereo not given), the activity change was inactive: -4.12%.

As for `O=[N+]([O-])c1ccc(OP2(=O)COCCO2)cc1` (stereo not given), the activity change is inactive: 22.4%.

On to `Cc1cc(-c2cccc3ccccc23)c(C)cn1.O=[N+]([O-])c1cc([N+](=O)[O-])c(O)c([N+](=O)[O-])c1`, for which the activity change is inactive: -20.1%.

Take `Cc1c(C(c2ccc3c(c2)OCO3)c2c(C)n(C)n(-c3ccccc3)c2=O)c(=O)n(-c2ccccc2)n1C.O=[N+]([O-])c1cc([N+](=O)[O-])c(O)c([N+](=O)[O-])c1`: the activity change is inactive: 7.63%.

As to `COc1ccc(OP(C)(=O)Nc2cccc(Br)c2)cc1` (stereo not given), the activity change is inactive: 0.56%.

For `CN(C)CCOC(=O)C(O)(c1ccccc1)C1CCCCC1` (stereo not given), the activity change was inactive: -29.9%.

In the case of `COc1ccc(NP(C)(=O)Oc2ccccc2OC)cc1` (stereo not given), the activity change was inactive: -8.61%.

Regarding `CP(=O)(Nc1ccc2c(c1)OCCO2)Oc1ccccc1` (stereo not given), the activity change is inactive: 1.2%.

Take `Cc1ccccc1NP(C)(=O)Nc1ccccc1C`: the activity change is inactive: 10.2%.

In the case of `CP(=O)(Nc1ccc(SC(F)(F)F)cc1)Oc1ccc(F)cc1` (stereo not given), the activity change was inactive: 9.01%.

As for `CCOP(C)(=S)SCC(=O)NC(C)(CC)C(=O)O` (stereo not given), the activity change was inactive: -0.644%.
